Measurements from article PMC2918227 (Bioorganic & medicinal chemistry, 2010).

The chains behind the UniProt entries cited, without tags or fusion partners.
UniProt P28223, whole entry: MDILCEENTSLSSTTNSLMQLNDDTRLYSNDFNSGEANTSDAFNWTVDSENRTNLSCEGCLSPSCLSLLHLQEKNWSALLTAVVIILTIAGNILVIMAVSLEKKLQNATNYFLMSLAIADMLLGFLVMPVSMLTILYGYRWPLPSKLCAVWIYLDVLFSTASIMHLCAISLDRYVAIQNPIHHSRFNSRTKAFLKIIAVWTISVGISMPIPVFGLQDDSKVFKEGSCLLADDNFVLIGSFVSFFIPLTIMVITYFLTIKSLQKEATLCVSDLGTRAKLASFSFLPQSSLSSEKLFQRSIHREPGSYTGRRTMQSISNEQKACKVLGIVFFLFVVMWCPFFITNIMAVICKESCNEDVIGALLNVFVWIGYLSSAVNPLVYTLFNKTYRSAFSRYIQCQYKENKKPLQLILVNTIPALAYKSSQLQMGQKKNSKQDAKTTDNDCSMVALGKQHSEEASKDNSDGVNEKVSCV

Molecular target: human 5-HT2A receptor (Homo sapiens, UniProt P28223)
Assay: 5HT2A Ke determination in FLIPR assay
Assay type: cell-based

SMILES | Kb [µM]
COc1cc2c(c(-c3ccc4c(c3)OCO4)c1OC)CN(C)CC2 [Compound 6a, 8-(benzo[d][1,3]dioxol-5-yl)-6,7-dimethoxy-2-methyl-1,2,3,4-tetrahydroisoquinoline] | > 10
COc1cc2c(c(-c3ccc4c(c3)OCO4)c1OC)C(C)N(C)CC2 (stereo not shown) [Compound 6b, 8-(benzo[d][1,3]dioxol-5-yl)-6,7-dimethoxy-1,2-dimethyl-1,2,3,4-tetrahydroisoquinoline] | > 10
COc1cc2c3c(c1OC)-c1cc4c(cc1CC3NCC2)OCO4 (stereo not shown) [Compound 8a, 1,2-dimethoxy-5,6,6a,7-tetrahydro-4H-benzo[de][1,3]benzodioxolo[5,6-g]quinoline] | > 10
CCN1CCc2cc(OC)c(OC)c3c2C1Cc1cc2c(cc1-3)OCO2 (stereo not shown) [Compound 8b, 1,2-dimethoxy-6-ethyl-5,6,6a,7-tetrahydro-4H-benzo[de][1,3]benzodioxolo[5,6-g]quinoline] | > 10
